Results from ChEMBL document CHEMBL1149666, “Novel 1-(azacyclyl)-3-arylsulfonyl-1H-pyrrolo[2,3-b]pyridines as 5-HT6 agonists and antagonists” (Bioorg Med Chem, 2007).

The chains behind the UniProt entries cited, without tags or fusion partners.
UniProt P50406, whole entry: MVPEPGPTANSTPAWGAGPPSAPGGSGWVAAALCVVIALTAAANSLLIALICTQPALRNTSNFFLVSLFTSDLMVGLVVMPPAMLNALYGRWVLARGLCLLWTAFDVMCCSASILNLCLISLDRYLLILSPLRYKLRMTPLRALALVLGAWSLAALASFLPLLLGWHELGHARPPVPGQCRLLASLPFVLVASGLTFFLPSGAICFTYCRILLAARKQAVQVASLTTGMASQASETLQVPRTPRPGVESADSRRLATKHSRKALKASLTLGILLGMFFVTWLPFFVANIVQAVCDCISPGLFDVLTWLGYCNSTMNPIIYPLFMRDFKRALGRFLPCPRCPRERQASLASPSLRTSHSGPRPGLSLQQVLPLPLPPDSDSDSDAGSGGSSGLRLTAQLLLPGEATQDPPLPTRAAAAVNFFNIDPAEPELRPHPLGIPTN

Biological target: 5-hydroxytryptamine receptor 6 (Homo sapiens, UniProt P50406)
Assay: Agonist activity at human 5HT6 expressed in HeLa cells assessed as intracellular cAMP level by radioimmunoassay
Type: functional, cell-based

EC50	Compound
60 nM	CCN1CCCC(n2cc(S(=O)(=O)c3cccc(F)c3)c3cccnc32)C1 (configuration not stated)
231 nM	CN1CCC(n2cc(S(=O)(=O)c3cccc(F)c3)c3cccnc32)C1 (configuration not stated)
